Data on one compound can be found in ChEMBL document CHEMBL1130246, “Tyrosine kinase inhibitors. 13. Structure-activity relationships for soluble 7-substituted 4-[(3-bromophenyl)amino]pyrido[4,3-d]pyrimidines designed as inhibitors of the tyrosine kinase activity of the epidermal growth factor receptor” (J Med Chem, 1997).

Chains of the proteins cited; added tags and fusions are not shown.
UniProt P00533, whole entry: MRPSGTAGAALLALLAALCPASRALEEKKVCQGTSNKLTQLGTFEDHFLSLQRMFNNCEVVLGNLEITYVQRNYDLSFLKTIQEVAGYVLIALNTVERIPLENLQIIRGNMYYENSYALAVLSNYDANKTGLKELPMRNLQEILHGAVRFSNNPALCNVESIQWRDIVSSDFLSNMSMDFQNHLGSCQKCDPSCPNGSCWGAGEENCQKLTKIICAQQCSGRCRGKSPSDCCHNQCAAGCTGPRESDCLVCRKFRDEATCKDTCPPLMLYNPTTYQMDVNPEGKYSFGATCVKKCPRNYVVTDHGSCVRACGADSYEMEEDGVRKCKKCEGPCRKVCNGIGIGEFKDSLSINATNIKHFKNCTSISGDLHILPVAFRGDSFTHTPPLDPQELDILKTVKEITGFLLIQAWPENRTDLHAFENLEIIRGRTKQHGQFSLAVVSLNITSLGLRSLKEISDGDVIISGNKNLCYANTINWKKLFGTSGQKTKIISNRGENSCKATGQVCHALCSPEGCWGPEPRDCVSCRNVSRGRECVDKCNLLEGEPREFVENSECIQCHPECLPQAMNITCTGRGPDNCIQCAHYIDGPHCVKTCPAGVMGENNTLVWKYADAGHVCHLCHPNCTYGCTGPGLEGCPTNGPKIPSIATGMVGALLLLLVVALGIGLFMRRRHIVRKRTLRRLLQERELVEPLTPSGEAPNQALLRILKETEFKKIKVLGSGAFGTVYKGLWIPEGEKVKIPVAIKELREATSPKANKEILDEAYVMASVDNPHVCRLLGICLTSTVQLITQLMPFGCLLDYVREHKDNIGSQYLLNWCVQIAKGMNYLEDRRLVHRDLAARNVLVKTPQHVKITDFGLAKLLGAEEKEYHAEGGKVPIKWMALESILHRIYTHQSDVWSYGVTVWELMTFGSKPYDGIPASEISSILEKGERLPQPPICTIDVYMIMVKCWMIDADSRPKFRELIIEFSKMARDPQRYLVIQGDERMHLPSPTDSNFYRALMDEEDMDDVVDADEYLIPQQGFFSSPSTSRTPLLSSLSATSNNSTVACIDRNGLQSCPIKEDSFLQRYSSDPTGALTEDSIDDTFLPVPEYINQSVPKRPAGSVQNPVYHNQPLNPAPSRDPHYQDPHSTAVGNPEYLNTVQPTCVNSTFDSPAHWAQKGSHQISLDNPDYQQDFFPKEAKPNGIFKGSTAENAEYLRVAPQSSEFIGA

This assay concerns the target Epidermal growth factor receptor (Homo sapiens, UniProt P00533). The assay is described as follows: Inhibition of phosphorylation of polyglutamic acid/tyrosine random copolymer by epidermal growth factor receptor.

Take `CNc1ccc2c(Nc3cccc(Br)c3)ncnc2c1`: the concentration for half-maximal inhibition (IC50) stood at 4 nM.
